By UniProt entry, the sequences of proteins in these tests, tags left out.
UniProt P25095, whole entry: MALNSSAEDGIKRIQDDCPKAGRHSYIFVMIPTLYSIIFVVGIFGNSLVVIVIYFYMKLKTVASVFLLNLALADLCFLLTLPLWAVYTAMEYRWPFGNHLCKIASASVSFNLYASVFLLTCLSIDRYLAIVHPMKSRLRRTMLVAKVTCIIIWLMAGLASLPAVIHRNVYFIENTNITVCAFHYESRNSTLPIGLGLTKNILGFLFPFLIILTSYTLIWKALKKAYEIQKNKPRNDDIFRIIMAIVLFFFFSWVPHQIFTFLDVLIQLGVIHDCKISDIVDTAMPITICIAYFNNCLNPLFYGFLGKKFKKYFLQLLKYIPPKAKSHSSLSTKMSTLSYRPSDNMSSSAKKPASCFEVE

According to patent publication US20240025949A1, “Beta-Arrestin Effectors and Compositions and Methods of Use Thereof” (Trevena, Inc., priority 2021, published 2024):

Columns and labels:
Assay type in all cases: cell-based
human AT1R [1] = molecular target: T1, human AT1R (Homo sapiens, UniProt P30556); assay: PathHunter β-arrestin-2 recruitment assay, human AT1R; settings: PathHunter β-arrestin HEK293 cells
T1 construct: ProLink (β-galactosidase enzyme-donor fragment, from the pCMV-ProLink vector)

rat AT1aR [2] = molecular target: T2, rat AT1aR (Rattus norvegicus, UniProt P25095); assay: PathHunter β-arrestin-2 recruitment assay, rat AT1aR; settings: PathHunter β-arrestin HEK293 cells
T2 construct: ProLink (β-galactosidase enzyme-donor fragment, from the pCMV-ProLink vector)

human AT1R [3] = molecular target: T1, human AT1R; assay: IP1 accumulation assay (IP-One Tb), human AT1R; settings: cells expressing human AT1R; for human AT1R IP One EC50 (M): inactive = EC50 greater than 10 uM
rat AT1aR [4] = molecular target: T2, rat AT1aR; assay: IP1 accumulation assay (IP-One Tb), rat AT1aR; settings: cells expressing rat AT1aR; for rat AT1aR IP One EC50 (M): inactive = EC50 greater than 10 uM

CCC[C@H](NC(=O)[C@@H]1CCCN1C(=O)[C@H](Cc1c[nH]cn1)NC(=O)[C@@H](NC(=O)[C@H](Cc1ccc(O)cc1)NC(=O)[C@@H](NC(=O)[C@H](CCCNC(=N)N)NC(=O)CNC)C(C)C)[C@@H](C)CC)C(=O)O [compound 35]
human AT1R b-arrestin2 Max (%) (human AT1R [1]): 67.9%
rat AT1aR b-arrestin2 Max (%) (rat AT1aR [2]): 79.8%
human AT1R IP One Max (%) (human AT1R [3]): 7.1%
rat AT1aR IP One Max (%) (rat AT1aR [4]): 30.5%

CC[C@H](C)[C@@H]1NC(=O)[C@H](Cc2ccc(O)cc2)NC(=O)[C@H](C(C)C)NC(=O)[C@H](CCCNC(=N)N)NC(=O)[C@@H]2CCCN2C(=O)[C@H](Cc2c[nH]cn2)NC(=O)[C@H]([C@@H](C)CC)NC(=O)[C@H](Cc2ccc(O)cc2)NC(=O)[C@H](C(C)C)NC(=O)[C@H](CCCNC(=N)N)NC(=O)[C@@H]2CCCN2C(=O)[C@H](Cc2c[nH]cn2)NC(=O)[C@H]([C@@H](C)CC)NC(=O)[C@H](Cc2ccc(O)cc2)NC(=O)[C@H](C(C)C)NC(=O)[C@H](CCCNC(=N)N)NC(=O)[C@@H]2CCCN2C(=O)[C@H](Cc2c[nH]cn2)NC1=O [compound 36]
human AT1R b-arrestin2 Max (%) (human AT1R [1]): 39.5%
rat AT1aR b-arrestin2 Max (%) (rat AT1aR [2]): 32.8%
human AT1R IP One EC50 (M) (human AT1R [3]): inactive
rat AT1aR IP One Max (%) (rat AT1aR [4]): 19.2%

CC[C@H](C)[C@@H]1NC(=O)[C@H](Cc2ccc(O)cc2)NC(=O)[C@H](C(C)C)NC(=O)[C@H](Cc2ccccc2)NC(=O)[C@@H]2CCCN2C(=O)[C@H](Cc2c[nH]cn2)NC(=O)[C@H]([C@@H](C)CC)NC(=O)[C@H](Cc2ccc(O)cc2)NC(=O)[C@H](C(C)C)NC(=O)[C@H](Cc2ccccc2)NC(=O)[C@@H]2CCCN2C(=O)[C@H](Cc2c[nH]cn2)NC(=O)[C@H]([C@@H](C)CC)NC(=O)[C@H](Cc2ccc(O)cc2)NC(=O)[C@H](C(C)C)NC(=O)[C@H](Cc2ccccc2)NC(=O)[C@@H]2CCCN2C(=O)[C@H](Cc2c[nH]cn2)NC1=O [compound 37]
human AT1R b-arrestin2 Max (%) (human AT1R [1]): 62.3%
rat AT1aR b-arrestin2 Max (%) (rat AT1aR [2]): 60.7%
human AT1R IP One EC50 (M) (human AT1R [3]): inactive
rat AT1aR IP One Max (%) (rat AT1aR [4]): 14.7%

CC[C@H](C)[C@@H]1NC(=O)[C@H](Cc2ccc(O)cc2)NC(=O)[C@H](C(C)C)NC(=O)[C@H](Cc2ccccc2)NC(=O)[C@@H]2CCCN2C(=O)[C@H](Cc2c[nH]cn2)NC1=O [compound 38]
human AT1R b-arrestin2 Max (%) (human AT1R [1]): 43.1%
rat AT1aR b-arrestin2 Max (%) (rat AT1aR [2]): 66.4%
human AT1R IP One EC50 (M) (human AT1R [3]): inactive
rat AT1aR IP One Max (%) (rat AT1aR [4]): 20.8%

CC[C@H](C)[C@H](NC(=O)[C@H](Cc1ccc(O)cc1)NC(=O)[C@@H](NC(=O)[C@H](CCCNC(=N)N)NC(=O)[C@H](C)NC)C(C)C)C(=O)N[C@@H](Cc1c[nH]cn1)C(=O)N1CCC[C@H]1C(=O)N[C@H](C)C(=O)O [compound 44]
human AT1R b-arrestin2 Max (%) (human AT1R [1]): 47.3%
rat AT1aR b-arrestin2 Max (%) (rat AT1aR [2]): 71.9%
human AT1R IP One EC50 (M) (human AT1R [3]): inactive
rat AT1aR IP One Max (%) (rat AT1aR [4]): 14.6%

CC(C)[C@H](NC(=O)[C@H](CCCNC(=N)N)NC(=O)[C@@H](N)CCC(=O)O)C(=O)N[C@@H](Cc1ccc(O)cc1)C(=O)N[C@@H](Cc1ccc(O)cc1)C(=O)N[C@@H](Cc1c[nH]cn1)C(=O)N1CCC[C@H]1C(N)=O [compound 59]
human AT1R b-arrestin2 Max (%) (human AT1R [1]): 19.49%
rat AT1aR b-arrestin2 Max (%) (rat AT1aR [2]): 27.84%
human AT1R IP One EC50 (M) (human AT1R [3]): inactive
rat AT1aR IP One EC50 (M) (rat AT1aR [4]): Inactive

CC(C)[C@H](NC(=O)[C@H](CCCNC(=N)N)NC(=O)[C@H](N)CCC(=O)O)C(=O)N[C@@H](Cc1ccc(O)cc1)C(=O)N[C@@H](Cc1ccc(O)cc1)C(=O)N[C@@H](Cc1c[nH]cn1)C(=O)N1CCC[C@H]1C(N)=O [compound 60]
human AT1R b-arrestin2 Max (%) (human AT1R [1]): 44.02%
rat AT1aR b-arrestin2 Max (%) (rat AT1aR [2]): 79.27%
human AT1R IP One EC50 (M) (human AT1R [3]): inactive
rat AT1aR IP One EC50 (M) (rat AT1aR [4]): Inactive

CN[C@@H](CCC(=O)O)C(=O)N[C@@H](CCCNC(=N)N)C(=O)N[C@H](C(=O)N[C@@H](Cc1ccc(O)cc1)C(=O)N[C@@H](Cc1ccc(O)cc1)C(=O)N[C@@H](Cc1c[nH]cn1)C(=O)N1CCC[C@H]1C(N)=O)C(C)C [compound 62]
human AT1R b-arrestin2 Max (%) (human AT1R [1]): 24.68%
rat AT1aR b-arrestin2 Max (%) (rat AT1aR [2]): 44.19%
human AT1R IP One EC50 (M) (human AT1R [3]): inactive
rat AT1aR IP One EC50 (M) (rat AT1aR [4]): Inactive

CC(C)[C@H](NC(=O)[C@H](CCCNC(=N)N)NC(=O)[C@@H](N)CCC(=O)O)C(=O)N[C@@H](Cc1ccc(O)cc1)C(=O)N[C@@H](Cc1ccccc1)C(=O)N[C@@H](Cc1c[nH]cn1)C(=O)N1CCC[C@H]1C(N)=O [compound 64]
human AT1R b-arrestin2 Max (%) (human AT1R [1]): 20.39%
rat AT1aR b-arrestin2 Max (%) (rat AT1aR [2]): 26.95%
human AT1R IP One EC50 (M) (human AT1R [3]): inactive
rat AT1aR IP One EC50 (M) (rat AT1aR [4]): Inactive

CN[C@@H](CCC(=O)O)C(=O)N[C@@H](CCCNC(=N)N)C(=O)N[C@H](C(=O)N[C@@H](Cc1ccc(O)cc1)C(=O)N[C@@H](Cc1ccccc1)C(=O)N[C@@H](Cc1c[nH]cn1)C(=O)N1CCC[C@H]1C(N)=O)C(C)C [compound 66]
human AT1R b-arrestin2 Max (%) (human AT1R [1]): 30.56%
rat AT1aR b-arrestin2 Max (%) (rat AT1aR [2]): 58.54%
human AT1R IP One EC50 (M) (human AT1R [3]): inactive
rat AT1aR IP One EC50 (M) (rat AT1aR [4]): Inactive

CC[C@H](C)[C@H](NC(=O)[C@H](Cc1ccc(O)c(O)c1)NC(=O)[C@@H](NC(=O)[C@H](CCCNC(=N)N)NC(=O)CNC)C(C)C)C(=O)N[C@@H](Cc1c[nH]cn1)C(=O)N1CCC[C@H]1C(=O)N[C@H](C)C(=O)O [compound 67]
human AT1R b-arrestin2 Max (%) (human AT1R [1]): 100.6%
rat AT1aR b-arrestin2 Max (%) (rat AT1aR [2]): 117%
human AT1R IP One EC50 (M) (human AT1R [3]): inactive
rat AT1aR IP One EC50 (M) (rat AT1aR [4]): Inactive
